Values of other authors in US8133893B2, “Trazodone and trazodone hydrochloride in purified form” (Aziende Chimiche Riunite Angelini Francesco A.C.R.A.F. …, priority 2007, dated 2012).

Settings: as reported in TOXNET, National Library of Medicine; cited from earlier work

1-bromo-3-chloro-propane
genotoxicity: known genotoxic substances
